Source: patent publication US20240226120A1 (priority 2020, published 2024)

Experiments:
[1] = tested on: interferon and interferon-induced antiviral effector gene expression in cells transfected with pCMV-3Tag-3A control vector; type: cell-based, human
[2] = tested on: HEK293 (human embryonic kidney) cells transfected with plasmid expressing ORF10

For `C=C(C)[C@@H]1CCC(C)=C[C@H]1c1c(O)cc(CCCCC)cc1O` [Cannabidiol, 2-[(1R,6R)-3-Methyl-6-(1-methylethenyl)-2-cyclohexen-1-yl]-5-pentyl-1,3-benzenediol], the IFIT1 expression [1] was “significantly increases”, the Mx1 expression [1] was “exhibited expression” and the “interferons lambda 2/3 expression” value [1] was “did not cause an induction”. For the same molecule, the “apoptosis (early and late)” value [2] was “significantly greater extent” and the “augmentation of the apoptotic response to ORF10 expression” value [2] was “not significant”.
